Laboratory results from patent publication US20250340604A1, “BLOOD-BRAIN BARRIER TRANSLOCATING PEPTIDES AND RELATED MOLECULES AND METHODS OF USE THEREOF” (Enkefalos Biosciences, Inc., priority 2022, published 2025).

Biological target: human transferrin receptor (hTfR), form not stated (human) (UniProt P02786)
Test: standard receptor-substrate binding assay on hTfR

For “adalimumab-CYC17 cyclotide fusion (bivalent) (from UniProt P0DOX7 1-214) (other; other documents disagree on this pair)”, the EC50 was 0.45 nM.
